Measurements: ChEMBL document CHEMBL5728091, “3-((hetero-)aryl)-alkyl-8-amino-2-oxo-l,3-diaza-spiro-[4.5]-decane derivatives” (2020)

Chains of the proteins cited; added tags and fusions are not shown.
UniProt P41146, whole entry: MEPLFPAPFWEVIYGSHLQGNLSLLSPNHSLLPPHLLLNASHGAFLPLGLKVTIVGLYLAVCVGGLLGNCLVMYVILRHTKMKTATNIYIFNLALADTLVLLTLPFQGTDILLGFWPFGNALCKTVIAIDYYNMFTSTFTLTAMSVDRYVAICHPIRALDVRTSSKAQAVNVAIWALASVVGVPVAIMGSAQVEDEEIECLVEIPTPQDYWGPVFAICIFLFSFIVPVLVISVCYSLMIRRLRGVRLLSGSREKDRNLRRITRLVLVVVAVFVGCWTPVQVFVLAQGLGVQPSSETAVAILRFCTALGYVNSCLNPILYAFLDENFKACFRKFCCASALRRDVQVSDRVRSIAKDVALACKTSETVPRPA

Biological target: Nociceptin receptor (Homo sapiens, UniProt P41146)
Assay: Receptor Binding Assay: The hNOP receptor binding assay was performed as homogeneous SPA-assay (scintillation proximity assay) using the assay buffer 50 mM TRIS-HCl. 10 mM MgCl2. 1 mM EDTA (pH 7.4). The final assay volume (250 ul/well) included 0.5 nM of [leucyl-3H]nociceptin as ligand (PerkinElmer Life Sciences. Inc. Boston. Mass. USA). and either test compound in dilution series or 1 uM unlabell

SMILES	Ki [nM]
COc1ccc(CN2C[C@]3(CC[C@](c4ccccc4)(N(C)C)CC3)N(CC3CCCO3)C2=O)cc1 (stereo partly drawn)	310
CN(C)[C@]1(c2ccccc2)CC[C@]2(CC1)CN(Cc1cccc(C3CC3)c1)C(=O)N2	1830
CN(C)[C@]1(c2ccccc2)CC[C@]2(CC1)CN(Cc1cccc(S(C)(=O)=O)c1)C(=O)N2CC1CCC1	53.7
